What was measured:
EMT6 = assay: Inhibitory activity against EMT6 murine cell line; format: functional, cell-based, Mus musculus
Summary of the method: (§1)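 Aerobic growth inhibition of log-phase cells (parental NTR-negative lines). Cultures seeded 24 h before an 18 h drug exposure; cell density read 4–5 days later by sulforhodamine B staining. IC50 is the concentration giving 50% growth inhibition versus same-plate controls. Mean ± SEM of up to five independent experiments.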

SK-OV-3 = assay: Inhibitory activity was determined against SKOV3 cell line in human; format: functional, cell-based; summary of the method: as §1
V79 = assay: Inhibitory activity was determined against V79 cell line in chinese hamster; format: functional, cell-based, Cricetulus griseus; summary of the method: as §1
WiDr = assay: Inhibitory activity was determined against WiDr cell line in human; format: functional, cell-based; summary of the method: as §1

In the case of `Nc1ccc(N(CCCl)CCCl)cc1`, the IC50 (EMT6) is reported as 1060 nM, the IC50 (SK-OV-3) is reported as 3740 nM and the IC50 (V79) is reported as 1900 nM. For the same compound, the IC50 (WiDr) was 3900 nM.

Reference: ChEMBL document CHEMBL1145930, “Synthesis and evaluation of nitroheterocyclic carbamate prodrugs for use with nitroreductase-mediated gene-directed enzyme prodrug therapy” (J Med Chem, 2003)
